# FN deposition inh – fibronectin deposition inhibition | inhibition, % at 12.6 µM | AH1F fibroblasts, Alexa488-fibronectin deposition fluorescence, overnight | hit rate 0.086% among 350,000 | AID 743247;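 active means mean inhibition across replicates of 30% or more, regardless of how many single replicates reach that level; inconclusive means mean under 30% yet at least half of replicates reach 30%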
#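 Assay system: AH1F fibroblast monolayer, labelled fibronectin deposition. Amount: 10000 cells per well. Also added: labelled fibronectin 24 nM. Compound: single-point pinned compound. Incubation: cell attachment 1 h, compound and FN exposure overnight. Detection: fluorescence after three HBSS washes, excitation 485 nm, emission 525 nm. Read-out: inhibition of fibronectin deposition signal.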
# PGC1a acetyl inh – PGC1a acetylation modulation, inhibitor mode. hit rate 0.17% among 350,000. inhibition, % at 15.6 µM. U2OS PGC1a acetylation, AlphaScreen anti-acetyl-lysine; with virally co-expressed GCN5 acetyltransferase. AID 651687;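 active means every replicate shows inhibition of at least 40%; inconclusive means mean inhibition at least 40% but some replicate below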
# UUG fidelity – alters start codon recognition fidelity in yeast. S. cerevisiae UUG-firefly luciferase reporter, luminescence/redox ratio. AID 602363. activity score, % at 18.7 µM. hit rate 0.13% among 350,000;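 active = replicate mean at a twofold rise or more, about +100% in these data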;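 note: firefly luciferase made from a UUG start codon reports start codon fidelity; reporter light over untreated wells divided by growth signal over untreated wells; some hits fall short of that in this replicate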
# hiPSC survival – enhancers of human iPSC single-cell survival | hiPSC single-cell survival, ATPlite luminescence; 100% = ROCK inhibitor wells, 0% = DMSO | survival enhancement, % at 20 µM | hit rate 0.044% among 360,000 | AID 602274; in the data active means survival enhancement above about 18%;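 further: cells exposed to compounds for 16 hours before the ATP read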
# Statin myotox sup – protects C2C12 myotubes from simvastatin toxicity. ATP luminescence, 48 h; scaled: DMSO 0, geranylgeraniol control 100. rescue of ATP level, % at 7.49 µM. hit rate 0.78% among 330,000. AID 602340;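 active means mean ATP rescue above about 67%, or every replicate alone reaching that limit, limit read from the data, passing the limit was not always enough; inconclusive means no clear call, values can overlap the other calls; inactive means mean under the limit and some replicate under it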;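 further: myotubes were challenged with 10 µM simvastatin during compound exposure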
# Numbers stand for hits; . = inactive; ? = inconclusive; / = not tested or not shown. The list is not random: actives were taken first. Their share in the collection is about 0.91%.
SMILES,FN deposition inh,PGC1a acetyl inh,UUG fidelity,hiPSC survival,Statin myotox sup
CCOC(=O)/C=C(\C)Nc1cc(C)nn1-c1ccccc1,.,.,.,.,127
Cc1ccc(S(=O)(=O)Nc2ccc3c(c2)CC(=O)N([C@H](C)CO)C[C@@H](C)[C@@H](CN(C)Cc2ccc(Cl)c(Cl)c2)O3)cc1,.,.,.,/,116
Cc1ccc(S(=O)(=O)Nc2ccc3c(c2)CC(=O)N([C@H](C)CO)C[C@H](C)[C@@H](CN(C)Cc2ccc(Cl)c(Cl)c2)O3)cc1,.,.,.,/,145
Cc1ccc(S(=O)(=O)Nc2ccc3c(c2)CC(=O)N([C@@H](C)CO)C[C@H](C)[C@H](CN(C)Cc2ccc(Cl)c(Cl)c2)O3)cc1,.,.,.,/,.
Cc1ccc(S(=O)(=O)Nc2ccc3c(c2)CC(=O)N([C@H](C)CO)C[C@@H](C)[C@H](CN(C)Cc2ccc(Cl)c(Cl)c2)O3)cc1,.,.,.,/,103
COc1ccc(S(=O)(=O)Nc2ccc3c(c2)CC(=O)N([C@@H](C)CO)C[C@@H](C)[C@H](CN(C)Cc2ccc(Cl)c(Cl)c2)O3)cc1,/,.,.,/,?
C[C@@H]1CN([C@@H](C)CO)C(=O)Cc2cc(NS(=O)(=O)c3ccccc3)ccc2O[C@H]1CN(C)Cc1ccc(Cl)c(Cl)c1,.,.,.,/,.
Cc1ccc(S(=O)(=O)Nc2ccc3c(c2)CC(=O)N([C@@H](C)CO)C[C@@H](C)[C@@H](CN(C)Cc2ccc(Cl)c(Cl)c2)O3)cc1,.,.,.,/,77
C[C@@H]1CN([C@@H](C)CO)C(=O)c2cc(NC(=O)Nc3ccccc3)ccc2O[C@@H]1CN(C)S(C)(=O)=O,/,.,.,/,.
CN1/C(=C\C(=O)c2cccnc2)C(C)(C)c2ccccc21,.,/,/,.,/
CN1/C(=C/C(=O)c2nc(S(C)(=O)=O)ncc2Cl)C(C)(C)c2ccccc21,/,83,/,.,/
CC(C)(C)c1cc(C(F)(F)F)c(C#N)c(=O)[nH]1,.,.,.,.,120
CCCc1cc(C(F)(F)F)c(C#N)c(=O)[nH]1,.,.,.,.,.
O=C(C[C@@H]1CC[C@H]2[C@@H](COC[C@@H](O)CN2C(=O)c2cnccn2)O1)NCc1ccc(Cl)cc1,.,.,.,/,.
Cc1ccc(C2CC2c2n[nH]c(=S)n2-c2ccc(C)cc2)cc1 (stereo unspecified),/,.,.,.,118
Cc1ccc(-n2c(C3CC3c3ccc(Cl)cc3)n[nH]c2=S)cc1 (stereo unspecified),/,.,.,.,.
Cc1c(Nc2cc(Cl)c3nonc3c2[N+](=O)[O-])c(=O)n(-c2ccccc2)n1C,.,?,/,33,/
O=[N+]([O-])c1c(Nc2cccc(O)c2)cc(Cl)c2nonc12,35,/,.,.,.
C[C@@H]1CN([C@H](C)CO)C(=O)Cc2cc(NS(=O)(=O)c3ccc(Cl)cc3)ccc2O[C@@H]1CN(C)S(=O)(=O)c1cccs1,/,.,.,/,.
COc1ccc2c3c(n(C)c2c1)[C@H](CO)N(C(=O)c1ccccn1)CC31CN(C)C1,/,.,/,/,/
COc1cc(/C=C2\SC(=S)N(NC(=O)c3ccc(O)c(OC)c3)C2=O)ccc1O,.,.,.,.,102
O=C(CCOc1ccccc1)N1CCN(S(=O)(=O)c2cccs2)CC1,/,.,.,.,78
CC=Cc1ccc2n(c1=O)C[C@@H]1[C@@H](CO)[C@H](C(=O)NCc3ccccc3Cl)N(S(C)(=O)=O)[C@H]21 (mixture of isomers),.,/,/,/,.
O=C(Cc1ccccn1)N1CC(=O)N2[C@H](CO)[C@H](c3ccc(C#CC4CCCC4)cc3)[C@H]2C1,.,.,/,/,/
CS(=O)(=O)c1sc(C#N)c2c1C(=O)CC(c1ccccc1)C2 (stereo unspecified),37,.,.,.,/
SMILES,FN deposition inh,PGC1a acetyl inh,UUG fidelity,hiPSC survival,Statin myotox sup
Cc1noc(C)c1S(=O)(=O)Nc1ccc2c(c1)C(=O)N([C@H](C)CO)C[C@@H](C)[C@@H](CN(C)C(=O)Cc1ccccc1)OCCCC[C@H](C)O2,/,.,.,/,.
Cc1cccc(C)c1NC(=O)COC(=O)c1ccccc1[N+](=O)[O-],.,.,.,.,.
Cc1c(C(=O)OCC(=O)Nc2ccc(C(N)=O)cc2)cccc1[N+](=O)[O-],.,/,/,22,/
O=C(NCC1CCOCC1)c1ccc(-c2ccc(F)c(F)c2)c2ccoc12,.,.,.,.,.
COCCNC(=O)c1ccc(-c2cn[nH]c2)c2ccoc12,.,.,.,31,.
O=C(NCc1ccccc1)c1ccc(-c2cn[nH]c2)c2ccoc12,35,.,.,107,.
O=C(NCC1CC1)c1ccc(-c2cn[nH]c2)c2ccoc12,.,.,.,43,.
CO[C@H]1CN(C)C(=O)c2ccc(NS(C)(=O)=O)cc2OC[C@H](C)N(CC2CCOCC2)C[C@H]1C,.,.,.,/,.
C[C@@H]1CN([C@H](C)CO)C(=O)c2cc(-c3ccccc3)cnc2O[C@H]1CN(C)C,.,.,.,/,.
CC1CCCCN1C(=O)CN(C)S(=O)(=O)c1cccc2nsnc12 (stereo unspecified),.,42,.,.,.
O=C(NCC1CCCCC1)[C@H]1[C@H](CO)[C@H]2Cn3c(cccc3=O)[C@@H]1N2C(=O)c1cccnc1,/,/,/,/,.
O=C(C[C@H]1CC[C@H]2[C@@H](COC[C@@H](O)CN2C(=O)c2cc(Cl)cc(Cl)c2)O1)N1CCc2ccccc2C1,.,.,/,/,81
O=C(C[C@H]1CC[C@@H]2[C@H](COC[C@@H](O)CN2Cc2ccc(Oc3ccccc3)cc2)O1)N1CCCCC1,.,.,.,/,71
O=C(C[C@H]1CC[C@@H]2[C@H](COC[C@@H](O)CN2Cc2cc(F)ccc2F)O1)N1CCc2ccccc2C1,.,.,.,/,.
O=C(C[C@@H]1CC[C@@H]2[C@H](COC[C@H](O)CN2C(=O)c2cc(Cl)cc(Cl)c2)O1)N1CCc2ccccc2C1,.,.,/,/,91
O=C(C[C@@H]1CC[C@H]2[C@@H](COC[C@H](O)CN2Cc2ccc(Oc3ccccc3)cc2)O1)N1CCCCC1,.,.,.,/,.
O=C(C[C@H]1CC[C@@H]2[C@H](COC[C@H](O)CN2C(=O)c2cc(Cl)cc(Cl)c2)O1)N1CCc2ccccc2C1,.,.,.,/,.
Cc1noc(C)c1S(=O)(=O)Nc1cccc2c1O[C@@H](CN(C)C)[C@@H](C)CN([C@H](C)CO)C2=O,.,.,.,/,.
O=C(COC(=O)CNC(=O)c1ccc(Br)o1)Nc1ccc2c(c1)OCCO2,/,.,.,.,141
O=C(COC(=O)c1ccc(Br)o1)Nc1ccc2c(c1)OCCO2,.,.,.,.,.
COc1ccc(S(=O)(=O)N(C)C[C@@H]2Oc3ccc(NS(C)(=O)=O)cc3C(=O)N([C@H](C)CO)C[C@H]2C)cc1,/,.,.,/,/
CC(C)(C)C(=O)Nc1ccccc1N1CCN(C(=O)c2ccc(Cl)cc2)CC1,.,.,.,.,127
O=C(CSc1ccc(Cl)cc1)Nc1ccccc1N1CCN(C(=O)c2ccc(Cl)cc2)CC1,.,/,/,.,/
